Data: US6077680A (The University of Florida, dated 2000)
pKd: −log10 of the molar value. Where two headings read alike, the source gives them in different places.

By UniProt entry, the sequences of proteins in these tests, tags left out. Where a name states a change or a piece, a line headed by the entry shows the natural chain unless it says otherwise.
UniProt P63142, whole entry: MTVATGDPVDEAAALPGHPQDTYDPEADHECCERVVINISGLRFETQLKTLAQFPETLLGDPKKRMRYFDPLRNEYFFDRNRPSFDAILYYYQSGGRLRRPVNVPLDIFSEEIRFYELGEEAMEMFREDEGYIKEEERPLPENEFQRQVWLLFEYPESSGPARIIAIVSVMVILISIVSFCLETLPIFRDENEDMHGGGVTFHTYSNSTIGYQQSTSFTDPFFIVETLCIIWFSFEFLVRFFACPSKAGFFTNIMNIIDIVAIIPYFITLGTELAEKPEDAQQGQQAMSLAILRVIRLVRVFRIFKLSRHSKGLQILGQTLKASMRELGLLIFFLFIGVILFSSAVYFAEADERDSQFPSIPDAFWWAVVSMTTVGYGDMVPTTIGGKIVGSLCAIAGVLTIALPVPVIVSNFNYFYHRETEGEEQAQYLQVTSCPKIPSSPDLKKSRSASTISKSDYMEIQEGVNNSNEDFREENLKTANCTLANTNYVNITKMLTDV
UniProt P22460, whole entry: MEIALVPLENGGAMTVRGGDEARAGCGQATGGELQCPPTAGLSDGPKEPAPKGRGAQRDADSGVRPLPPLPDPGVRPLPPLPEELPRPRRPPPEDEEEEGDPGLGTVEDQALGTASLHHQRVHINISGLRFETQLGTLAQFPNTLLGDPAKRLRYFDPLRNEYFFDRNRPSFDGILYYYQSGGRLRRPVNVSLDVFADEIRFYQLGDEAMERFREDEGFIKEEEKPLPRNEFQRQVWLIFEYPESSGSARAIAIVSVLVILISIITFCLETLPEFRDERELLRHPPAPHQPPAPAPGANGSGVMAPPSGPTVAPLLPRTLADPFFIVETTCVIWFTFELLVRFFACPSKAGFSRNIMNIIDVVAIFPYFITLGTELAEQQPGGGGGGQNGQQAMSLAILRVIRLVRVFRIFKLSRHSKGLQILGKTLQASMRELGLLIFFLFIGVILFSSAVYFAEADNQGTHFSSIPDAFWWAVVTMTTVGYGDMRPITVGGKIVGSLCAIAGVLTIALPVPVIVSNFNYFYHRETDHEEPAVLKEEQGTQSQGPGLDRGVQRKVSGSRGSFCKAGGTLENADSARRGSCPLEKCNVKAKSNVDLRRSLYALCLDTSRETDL
UniProt P15388: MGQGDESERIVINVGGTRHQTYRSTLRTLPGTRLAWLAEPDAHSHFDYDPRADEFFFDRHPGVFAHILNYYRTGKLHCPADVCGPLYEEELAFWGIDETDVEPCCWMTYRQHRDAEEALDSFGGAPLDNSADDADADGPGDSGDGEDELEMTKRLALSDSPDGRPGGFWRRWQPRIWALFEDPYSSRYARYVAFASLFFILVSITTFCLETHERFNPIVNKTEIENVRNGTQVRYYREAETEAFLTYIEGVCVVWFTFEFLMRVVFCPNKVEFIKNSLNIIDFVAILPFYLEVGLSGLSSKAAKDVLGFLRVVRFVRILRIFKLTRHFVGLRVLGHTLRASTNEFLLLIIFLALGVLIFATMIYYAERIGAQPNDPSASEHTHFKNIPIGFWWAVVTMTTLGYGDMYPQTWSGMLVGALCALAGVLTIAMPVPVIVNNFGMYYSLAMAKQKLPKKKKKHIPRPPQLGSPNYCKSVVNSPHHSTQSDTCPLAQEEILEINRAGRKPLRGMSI

Assays:
Kv1.2 = Kv1.2 (Rattus norvegicus, UniProt P63142); assay: cell-based
Kv1.5 = Kv1.5 (Homo sapiens, UniProt P22460); assay: cell-based
Kv3.1 = Kv3.1 (Mus musculus, UniProt P15388); assay: cell-based
IKCa (hKCa4) = IKCa (hKCa4) (Homo sapiens, UniProt O15554); assay: cell-based; conditions: Kd, small conductance calcium-activated potassium channel in T-cells

CC[C@H](C)[C@@H]1NC(=O)[C@@H](NC(=O)[C@H](CO)NC(=O)[C@@H](N)CCCNC(=N)N)CSSC[C@@H](C(=O)O)NC(=O)[C@H]([C@@H](C)O)NC(=O)CNC(=O)[C@@H]2CSSC[C@@H]3NC(=O)[C@H](CCC(N)=O)NC(=O)[C@H](Cc4ccccc4)NC(=O)[C@H](C)NC(=O)[C@H]([C@@H](C)O)NC(=O)[C@H](CSSC[C@H](NC(=O)[C@H](Cc4ccccc4)NC(=O)[C@H](CO)NC(=O)[C@H](CC(C)C)NC(=O)[C@H](CCCNC(=N)N)NC(=O)[C@H](Cc4ccc(O)cc4)NC(=O)[C@H](CN)NC(=O)[C@H](CCSC)NC(=O)[C@H](CO)NC(=O)[C@H](Cc4cnc[nH]4)NC(=O)[C@H](CCCCN)NC3=O)C(=O)N[C@@H](CCCNC(=N)N)C(=O)N[C@@H](CCCCN)C(=O)N[C@@H]([C@@H](C)O)C(=O)N2)NC(=O)[C@H](CCCNC(=N)N)NC(=O)[C@H](CO)NC(=O)[C@H](CCCCN)NC(=O)[C@@H]2CCCN2C(=O)[C@H]([C@@H](C)CC)NC(=O)[C@H]([C@@H](C)O)NC(=O)[C@H](CC(=O)O)NC1=O [K22DAP]
pKd (Kv1.2; Kv1.2 (Kd)): 8.30 | pKd (Kv1.2; read-out: Kv1.2 (Kd)): 7.41 | pKd (Kv1.5): < 7.00 | pKd (Kv3.1): < 7.00 | pKd (IKCa (hKCa4)): 8.00 | t1/2, degradation by trypsin (trypsin, chymotrypsin; pH 6.5): 30 min | stability to chymotrypsin (trypsin, chymotrypsin; pH 6.5, 1 h): stable
